Data on 1 compound can be found in ChEMBL document CHEMBL4118252, “Identification of novel thiazolo[5,4-d]pyrimidine derivatives as human A1 and A2A adenosine receptor antagonists/inverse agonists” (Bioorg Med Chem, 2018).

This assay concerns the target Adenosine receptor A2a (Homo sapiens, UniProt P29274). The assay is described as follows: Inverse agonist activity at human A2A adenosine receptor expressed in CHO cells assessed as inhibition of basal cAMP level after 30 mins by Alphascreen assay relative to control. Format: functional, cell-based. In outline:
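hA2A CHO cells exposed to varied compound concentrations without agonist, measuring decrease of basal cAMP; AlphaScreen detection (30 min acceptor beads, then 1 h donor beads with biotinylated cAMP). IC50 from sigmoid nonlinear fit, Emax efficacy; mean ± SEM.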
(Changes in cAMP serve as a functional read-out for many G protein-coupled receptors.)

For the compound `COc1ccccc1CNc1nc(N)c2nc(-c3ccccc3)sc2n1`, the Emax (commonly the size of the effect at its maximum, as opposed to the concentration needed) was determined as 55%.
